Experimental data as given in publication PMC5733478, “A Non-imaging High Throughput Approach to Chemical Library Screening at the Unmodified Adenosine-A3 Receptor in Living Cells” (Frontiers in Pharmacology, 2017).

Protein sequences, listed by entry. Tags and fused reporters are not part of them.
UniProt P30542, whole entry: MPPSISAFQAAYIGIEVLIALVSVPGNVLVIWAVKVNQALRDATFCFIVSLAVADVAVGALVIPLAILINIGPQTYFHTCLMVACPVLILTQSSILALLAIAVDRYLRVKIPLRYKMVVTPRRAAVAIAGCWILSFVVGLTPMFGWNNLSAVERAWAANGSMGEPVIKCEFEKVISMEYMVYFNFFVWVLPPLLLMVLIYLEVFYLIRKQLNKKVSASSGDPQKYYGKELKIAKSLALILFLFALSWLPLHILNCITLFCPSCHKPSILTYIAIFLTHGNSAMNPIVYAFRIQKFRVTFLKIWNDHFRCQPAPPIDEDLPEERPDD
UniProt P0DMS8, whole entry: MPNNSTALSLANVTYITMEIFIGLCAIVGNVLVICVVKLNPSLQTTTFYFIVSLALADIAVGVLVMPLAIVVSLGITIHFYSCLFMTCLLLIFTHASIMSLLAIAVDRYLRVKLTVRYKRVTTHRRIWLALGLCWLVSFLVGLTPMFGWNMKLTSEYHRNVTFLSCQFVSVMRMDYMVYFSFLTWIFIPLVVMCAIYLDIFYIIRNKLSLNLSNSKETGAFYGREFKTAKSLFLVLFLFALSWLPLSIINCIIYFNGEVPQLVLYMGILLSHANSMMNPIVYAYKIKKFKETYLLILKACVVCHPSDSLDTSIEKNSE

What follows are molecules tested against T1, human A1AR (Homo sapiens, UniProt P30542) (assay: HTS (PHERAstar FS) fluorescent ligand competition binding in live CHO cells, 25 nM CA200645 tracer). Conditions: CHO cells expressing A1AR, 25 nM CA200645, PHERAstar HTS assay, mean ± SEM.
T1 construct: expressed in transfected cells

Molecule	pKi A1AR CA200645
O=C(Cc1ccccc1)Nc1nc2ccc(Cl)cc2c2nc(-c3ccco3)nn12 [MRS1220]	7.35 ± 0.19

Each molecule was assayed against human A3AR (Homo sapiens, UniProt P0DMS8) (assay: LOPAC library primary screen: single concentration (10 μM) inhibition of 25 nM CA200645 binding, PHERAstar FS). Conditions: not given.

Molecule	% 25 nM CA200645 binding [%]
CC1CNCCN1S(=O)(=O)c1cccc2cnccc12.Cl.Cl (stereo not shown)	103.8 ± 5.9
Cl.N=C(N)NC(=N)Nc1cccc(Cl)c1	103.6 ± 13.0
C[C@]12CC[C@@H](O)C[C@@H]1CC[C@@H]1[C@@H]2CC[C@]2(C)[C@@H](C(=O)CO)CC[C@@H]12	103.6 ± 6.1
Cl.NCCc1ccc(S(=O)(=O)F)cc1	103.5 ± 4.8
Cc1ccc(S(=O)(=O)N[C@@H](CCCCN)C(=O)CCl)cc1.Cl	103.9 ± 14.0
CC(N)(C(=O)O)c1ccc(C(=O)O)cc1 (racemic) [(±)-alpha-Methyl-4-carboxyphenylglycine]	103.5 ± 10.0
Nc1ccn([C@H]2CC[C@@H](CO)O2)c(=O)n1 [2',3'-dideoxycytidine]	103.6 ± 6.0
Nc1cc(=O)[nH]c(N)n1 [2,4-Diamino-6-pyrimidinone]	104.1 ± 13.8
CCCCCC(O)CCCC(=O)O.[Na] (stereo not shown) [5-hydroxydecanoic acid sodium]	104.0 ± 7.6
CC[C@@H]1C(=O)OC[C@@H]1Cc1cncn1C.Cl [(+)-Pilocarpine hydrochloride]	103.9 ± 1.7
C[C@@]12N[C@@H](Cc3ccccc31)c1ccccc12.O=C(O)/C=C\C(=O)O [(-)-MK-801 hydrogen maleate]	104.1 ± 10.2
C=CCc1ccccc1OCC(O)CNC(C)C (stereo not shown) [Alprenolol hydrochloride]	104.1 ± 15.8
CCN(CC)CCn1c(=O)c(Cc2ccc(OC)cc2)nc2ccccc21.Cl [Caroverine hydrochloride]	104.5 ± 21.3
COc1cc2c(c(OC)c1OC)-c1ccc(OC)c(=O)cc1[C@@H](NC(C)=O)CC2 [Colchicine]	93.8 ± 5.1
COc1cc(C(=O)OCCCN2CCCN(CCCOC(=O)c3cc(OC)c(OC)c(OC)c3)CC2)cc(OC)c1OC [Dilazep hydrochloride]	103.7 ± 12.7
COc1ccc(NC(=O)c2ccc(-c3ccc(-c4noc(C)n4)cc3C)cc2)cc1N1CCN(C)CC1.Cl.O [GR 127935 hydrochloride hydrate]	104.2 ± 8.3
COC(=O)N1CCN(C(=O)Cc2ccc(Cl)c(Cl)c2)C(CN2CCCC2)C1.O=C(O)/C=C/C(=O)O (stereo not shown) [GR-89696 fumarate]	104.3 ± 9.0
Cc1nccc2c1[nH]c1ccccc12 [Harmane]	104.5 ± 8.0
C[N+]1(C)CCOC(O)(c2ccc(-c3ccc(C4(O)C[N+](C)(C)CCO4)cc3)cc2)C1 (stereo not shown) [Hemicholinium-3]	104.5 ± 15.9
NC(N)=NOCC[C@H](N)C(=O)O.O=S(=O)(O)O [L-Canavanine sulfate]	104.0 ± 8.6
C[C@](N)(Cc1ccc(O)cc1)C(=O)O [L-alpha-Methyl-p-tyrosine]	104.3 ± 4.3

Molecule	% 25 nM CA200645 binding [%]
CSc1ccccc1N1CCN(CCCCCC(=O)NC2CCCc3ccccc32)CC1 (stereo not shown) [LP44]	103.8 ± 8.7
CCN(CC)CC(=O)Nc1c(C)cccc1C [Lidocaine hydrochloride]	102.4 ± 8.9
COc1ccccc1CNCCCCCCNCCCCCCCCNCCCCCCNCc1ccccc1OC.Cl.Cl.Cl.Cl [Methoctramine tetrahydrochloride]	103.6 ± 10.6
CC(=O)Oc1cc(C(C)C)c(OCCN(C)C)cc1C [Moxisylyte hydrochloride]	103.5 ± 2.3
CCOC(=O)C1=C(C)NC(C)=C(C(=O)OCC)C1c1c(F)c(F)c(F)c(F)c1F [Nemadipine-A]	104.1 ± 11.6
CC(CCc1ccccc1)NC(C)C(O)c1ccc(O)cc1 (stereo not shown) [Nylidrin hydrochloride]	103.7 ± 6.3
Cc1cc(C(C)(C)C)c(O)c(C)c1CC1=NCCN1 [Oxymetazoline hydrochloride]	103.9 ± 10.0
CCCCC1C(=O)N(c2ccccc2)N(c2ccccc2)C1=O [Phenylbutazone]	104.5 ± 10.1
O=C1NC(=O)C(c2ccccc2)(c2ccccc2)N1 [Phenytoin sodium]	103.8 ± 12.2
CCN(CC)CCOC(=O)c1ccc(N)cc1 [Procaine hydrochloride]	104.5 ± 8.1
O=C(O)c1cccnc1C(=O)O [Quinolinic acid]	103.7 ± 10.0
CC(C)NC[C@H](O)c1ccc(O)c(O)c1.O=C(O)C(O)C(O)C(=O)O [R(-)-Isoproterenol (+)-bitartrate]	103.8 ± 21.4
Br.COc1ccc(-c2ccc(=N)n(CCCC(=O)O)n2)cc1 [SR-95531]	103.5 ± 3.4
CC1=C(CC(=O)O)c2cc(F)ccc2/C1=C\c1ccc([S+](C)[O-])cc1 (stereo not shown) [Sulindac]	103.7 ± 16.6
CC/C(=C(\c1ccccc1)c1ccc(OCCN(C)C)cc1)c1ccccc1 [Tamoxifen citrate]	104.2 ± 20.7
CC(CN(C)C)CN1c2ccccc2CCc2ccccc21 (stereo not shown) [Trimipramine maleate]	104.3 ± 7.1
N#C/C(=C\c1ccc(O)c(O)c1)C(N)=S [Tyrphostin 47]	104.0 ± 4.7
COc1ccc(CCN(C)CCc2ccc(OC)c(OC)c2)cc1OC.Cl [YS-035 hydrochloride]	103.5 ± 12.5
JL-18	96.2 ± 7.5
LE 300	98.5 ± 4.5
Phenylbenzene-omega-phosphono-alpha-amino acid	96.2 ± 4.8

Same assay, conditions: compounds tested at 10 µM; % of control wells (1% DMSO and 25 nM CA200645); whole live cells expressing the A3AR; mean ± SD, three experiments in duplicate

Molecule	% 25 nM CA200645 binding [%]
COc1cc2c(cc1O)CC[C@@H]1[C@@H]2CC[C@]2(C)[C@@H](O)CC[C@@H]12 [2-methoxyestradiol]	104.4 ± 10.2
CCN(CC)CCOCCOC(=O)C1(c2ccccc2)CCCC1 [Carbetapentane citrate]	104.5 ± 6.7
O=C(N[C@H]1CN2CCC1CC2)c1cc2ccoc2cn1 [PHA-543613]	103.8 ± 13.6

Structures can show the parent of a compound that is named as a salt.
